# Reference: US8034833B2, “Phosphorus binder for treatment of renal disease” (Biolink Life Sciences, Inc., priority 2008, dated 2011)
# Assay: Solubility in water of cationic phosphate binders (Lange's Handbook)
# Settings: relative hydrophile by solubility in water
substance,measurement,value
Calcium Gluconate,Hydrophile?,Yes (a cationic phosphate binder that has a solubility in water that exceeds about 0.5 g/100 mL of water)
